# OPERA 2.9 data: properties

Data: OPERA 2.9 data sets, kmansouri/OPERA on GitHub.

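The OPERA project collected these measurements from public sources as training and test data for property models. The files give a single number for a compound and property, which may rest on several reports. Conditions of the individual experiments are not part of the data. A value may pool stereoisomers or salt forms, and the file does not say which form was measured. Some entries may be limits or estimates that an upstream database listed as plain numbers.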

Melting points are in °C. The boiling point refers to atmospheric pressure (760 mmHg), by the definition of the set. The octanol-water partition coefficient is given as log10; larger values mean a more lipophilic compound. Water solubility is log10 of mol/L, nominally at 25 °C; higher is more soluble. Vapor pressure is log10 of mmHg; the set covers 15 to 30 °C, mostly 20 to 25 °C. Henry's law constant (air-water partitioning) is log10 of atm·m3/mol, nominally at 25 °C. Clint is human hepatic intrinsic clearance in µL/min per million cells; 0 means that no clearance was seen.

Listed for CCCCCCCC/C=C\CCCCCCCCNC(=O)CCCCCCCCCCCCCCC [N-Oleylpalmitic acid amide]: mp 65 °C and log VP -6.206 (log10 mmHg) and log Henry constant -3.85 (log10 atm·m3/mol). For CC(C)(O)C(=O)c1ccc(C2(C)CC(C)(C)c3cc(C(=O)C(C)(C)O)ccc32)cc1 (centres undefined) the data give mp 118.5 °C and logP (octanol/water) 3.35 and log S -5.937 (log10 mol/L) and log VP -9.875 (log10 mmHg). CN1CCCN(C)C1=O [2(1H)-Pyrimidinone, tetrahydro-1,3-dimethyl-] is reported with logP (octanol/water) 0.05 and log VP -1.824 (log10 mmHg). For CCCCCCCCCCCCCN(CC(C)O)CC(C)O (centres undefined) [1,1'-(Tridecylimino)bis-2-propanol] the data give log S -4.661 (log10 mol/L) and log VP -4.606 (log10 mmHg). COC=C(C(=O)OC)c1ccccc1CCl [Methyl 2-(2-(chloromethyl)phenyl)-3-methoxyacrylate] is reported with mp 91.5 °C and log VP -4.472 (log10 mmHg).

CC(=O)Nc1ccc(S(=O)(=O)CCO)cc1 [Acetamide, N-[4-[(2-hydroxyethyl)sulfonyl]phenyl]-] has mp 185 °C and log S -2.196 (log10 mol/L). Listed for COc1ccc(C(OC[C@H]2O[C@@H](n3cnc4c(=O)nc(NC(=O)C(C)C)[nH]c43)C[C@@H]2O)(c2ccccc2)c2ccc(OC)cc2)cc1: log S -5.426 (log10 mol/L) and log VP -5.423 (log10 mmHg). The entry for CCCCC(CC)CN(CC(CC)CCCC)Cn1cncn1 (centres undefined) [1H-1,2,4-Triazole-1-methanamine, N,N-bis(2-ethylhexyl)-] lists log VP -4.274 (log10 mmHg) and log Henry constant -6.474 (log10 atm·m3/mol). FC(F)(F)C(F)(F)C(F)(F)N(C(F)(F)C(F)(F)C(F)(F)F)C(F)(F)C(F)(F)C(F)(F)F [Perfluamine] is reported with log S -9.136 (log10 mol/L) and log VP 0.588 (log10 mmHg). Listed for C=CC(C)C#N (centres undefined) [2-Methyl-3-butenenitrile]: mp -123 °C and log S -1.069 (log10 mol/L) and log VP 1.47 (log10 mmHg).

Cc1ccc(S(=O)(=O)Oc2ccc(/N=N/c3cccc(Nc4ccc(S(=O)(=O)[O-])cc4[N+](=O)[O-])c3)c(C)c2)cc1.[Na+] [C.I. Acid Orange 67] has logP (octanol/water) 1.03 and log S -3.263 (log10 mol/L). Listed for CC1=Nc2ccc(C(=O)O)cc2C1(C)C [2,3,3-Trimethyl-3H-indole-5-carboxylic acid]: mp 207 °C and log S -2.663 (log10 mol/L). Nc1nc(F)nc2c1ncn2[C@@H]1O[C@H](COP(=O)(O)O)[C@@H](O)[C@@H]1O [Fludarabine phosphate] is reported with logP (octanol/water) -2.8 and log S -2.09 (log10 mol/L). Listed for OCCN1CCN(CCCN2c3ccccc3Sc3ccc(C(F)(F)F)cc32)CC1 [Fluphenazine]: log S -4.15 (log10 mol/L) and hepatic Clint 7.399 µL/min/10^6 cells. For N#CC1(N2CCCCC2)CCN(Cc2ccccc2)CC1 [1'-(Phenylmethyl)-(1,4'-bipiperidine)-4'-carbonitrile] the data give log S -2.243 (log10 mol/L) and log VP -6.745 (log10 mmHg).

The entry for CCOC(=O)CNC(=O)COC(=O)c1ccccc1OC(C)=O lists mp 68.5 °C and logP (octanol/water) 0.99 and log S -1.874 (log10 mol/L). The entry for C=CC(C)(O)CC/C=C(\C)CC (stereo partly drawn) [Ethyl linalool] lists mp -73 °C and logP (octanol/water) 3.3 and log S -2.409 (log10 mol/L) and log VP -0.87 (log10 mmHg). Listed for CC(C)c1ccc(S(=O)(=O)[O-])cc1.[NH4+] [Ammonium 4-isopropylbenzenesulfonate]: mp 315 °C and logP (octanol/water) -1.679. C=CC(=O)OCC(C)CC (centres undefined) [2-Propenoic acid, 2-methylbutyl ester] is reported with logP (octanol/water) 2.9 and log S -2.653 (log10 mol/L) and log VP 0.114 (log10 mmHg). Listed for Cc1oncc1C(=O)Nc1ccc(C(F)(F)F)cc1 [Leflunomide]: logP (octanol/water) 2.8 and log S -3.505 (log10 mol/L).

The entry for CCC1(CC=C2CCCc3cc(OC)ccc32)C(=O)CCC1=O lists mp 68 °C and logP (octanol/water) 4.3 and log S -4.839 (log10 mol/L). Listed for COCCCOc1cc(C(O)[C@@H](C[C@H](NC(=O)OC(C)(C)C)[C@@H]2C[C@@H](C(C)C)C(=O)O2)C(C)C)ccc1OC (stereo not given in full): mp 74.2 °C and logP (octanol/water) 2.49 and log S -3.732 (log10 mol/L). CCCCCC1CCC(C2CCC(c3ccc(OCC)c(F)c3F)CC2)CC1 (centres undefined) is reported with mp 184.5 °C and BP 403 °C and log S -6.895 (log10 mol/L) and log VP -7.844 (log10 mmHg). For C[C@@H](NCCc1ccc(O)cc1)[C@@H](O)c1ccc(O)cc1 [Ritodrine] the data give mp 89 °C and logP (octanol/water) 2.4 and log S -3.206 (log10 mol/L).

3 of these entries, quoted again:

{"smiles": "C=CC(C)(O)CC/C=C(\\C)CC", "stereo": "stereo partly drawn", "name": "Ethyl linalool", "mp (°C)": "-73", "logP (octanol/water)": "3.3", "log S (log10 mol/L)": "-2.409", "log VP (log10 mmHg)": "-0.87"}
{"smiles": "CCC1(CC=C2CCCc3cc(OC)ccc32)C(=O)CCC1=O", "mp (°C)": "68", "logP (octanol/water)": "4.3", "log S (log10 mol/L)": "-4.839"}
{"smiles": "C=CC(C)C#N", "stereo": "centres undefined", "name": "2-Methyl-3-butenenitrile", "mp (°C)": "-123", "log S (log10 mol/L)": "-1.069", "log VP (log10 mmHg)": "1.47"}